According to PubChem BioAssay:
Only a part is listed here, and it is no random draw. Activity calls are given as the source filed them. Cut-off read from the data, not from the text of the source, unless noted: active = activation above about 22%; inactive = the rest.

The chains behind the UniProt entries cited, without tags or fusion partners. Where a name states a change or a piece, a line headed by the entry shows the natural chain unless it says otherwise.
UniProt P37231: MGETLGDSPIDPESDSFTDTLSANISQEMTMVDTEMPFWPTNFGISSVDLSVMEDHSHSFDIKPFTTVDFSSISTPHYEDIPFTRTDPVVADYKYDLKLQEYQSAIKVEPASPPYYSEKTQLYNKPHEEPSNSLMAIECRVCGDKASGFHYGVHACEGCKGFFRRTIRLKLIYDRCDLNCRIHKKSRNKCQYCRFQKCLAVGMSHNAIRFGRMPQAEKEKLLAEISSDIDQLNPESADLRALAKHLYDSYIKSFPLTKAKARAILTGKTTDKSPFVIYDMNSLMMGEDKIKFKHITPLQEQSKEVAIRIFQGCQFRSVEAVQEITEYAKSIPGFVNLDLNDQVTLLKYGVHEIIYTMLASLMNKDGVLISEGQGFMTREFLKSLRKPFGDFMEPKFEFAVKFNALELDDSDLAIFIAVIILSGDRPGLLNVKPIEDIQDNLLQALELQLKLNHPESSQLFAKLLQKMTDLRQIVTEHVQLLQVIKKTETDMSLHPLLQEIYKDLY
UniProt Q9Y6Q9, whole entry, looked up: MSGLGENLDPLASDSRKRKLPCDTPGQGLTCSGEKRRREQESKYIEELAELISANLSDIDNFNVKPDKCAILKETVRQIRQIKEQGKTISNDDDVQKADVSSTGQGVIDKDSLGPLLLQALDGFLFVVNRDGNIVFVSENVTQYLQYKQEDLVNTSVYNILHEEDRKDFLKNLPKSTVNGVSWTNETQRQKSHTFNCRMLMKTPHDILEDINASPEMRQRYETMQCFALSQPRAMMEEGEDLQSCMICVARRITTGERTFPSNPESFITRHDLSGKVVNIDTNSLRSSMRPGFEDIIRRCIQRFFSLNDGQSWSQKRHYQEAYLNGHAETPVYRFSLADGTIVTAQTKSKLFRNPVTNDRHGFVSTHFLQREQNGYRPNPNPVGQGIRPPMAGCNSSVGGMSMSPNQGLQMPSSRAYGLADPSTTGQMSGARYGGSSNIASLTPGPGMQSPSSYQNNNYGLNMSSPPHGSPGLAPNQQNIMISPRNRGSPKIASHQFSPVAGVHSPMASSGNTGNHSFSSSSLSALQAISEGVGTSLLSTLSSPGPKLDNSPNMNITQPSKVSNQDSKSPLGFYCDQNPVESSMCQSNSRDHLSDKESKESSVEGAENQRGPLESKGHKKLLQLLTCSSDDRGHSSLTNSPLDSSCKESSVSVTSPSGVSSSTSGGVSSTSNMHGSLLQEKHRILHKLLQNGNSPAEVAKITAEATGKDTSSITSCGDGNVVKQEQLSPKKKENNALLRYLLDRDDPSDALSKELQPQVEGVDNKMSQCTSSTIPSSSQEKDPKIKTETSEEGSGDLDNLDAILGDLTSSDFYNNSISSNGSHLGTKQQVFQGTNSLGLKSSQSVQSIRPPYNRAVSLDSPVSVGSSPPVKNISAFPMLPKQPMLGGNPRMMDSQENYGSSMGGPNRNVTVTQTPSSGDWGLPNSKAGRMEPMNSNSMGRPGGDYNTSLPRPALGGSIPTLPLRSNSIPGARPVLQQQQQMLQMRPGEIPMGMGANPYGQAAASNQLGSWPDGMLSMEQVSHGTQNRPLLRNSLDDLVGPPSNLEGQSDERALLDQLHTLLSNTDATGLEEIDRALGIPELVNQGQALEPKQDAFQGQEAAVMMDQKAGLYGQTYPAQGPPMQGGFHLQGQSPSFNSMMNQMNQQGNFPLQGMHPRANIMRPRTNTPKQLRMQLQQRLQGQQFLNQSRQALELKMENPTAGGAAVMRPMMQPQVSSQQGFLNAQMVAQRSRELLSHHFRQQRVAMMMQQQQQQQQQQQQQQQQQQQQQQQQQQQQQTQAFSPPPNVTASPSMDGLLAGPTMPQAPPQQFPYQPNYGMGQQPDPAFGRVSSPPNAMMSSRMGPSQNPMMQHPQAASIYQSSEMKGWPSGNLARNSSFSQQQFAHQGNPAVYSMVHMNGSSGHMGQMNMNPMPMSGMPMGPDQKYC

Experiments:
[1] = molecular target: Peroxisome proliferator-activated receptor gamma (Homo sapiens) (UniProt P37231); assay: agonists of PPARgamma SRC-2 coactivator recruitment, confirmation, biochemical, HTS (AID 1297); details: biochemical SRC-2 recruitment by PPARgamma; at 8 µM; active compounds read high;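 note: 0% = vehicle alone and 100% = reference agonist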
[2] = molecular target: Peroxisome proliferator-activated receptor gamma (Homo sapiens) (UniProt P37231); assay: PPARgamma agonists recruiting SRC-1 coactivator, confirmation, biochemical (AID 1300; in the data active = activation above about 20%;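 note: 0% = vehicle wells and 100% = reference agonist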); details: PPARgamma–SRC-1 coactivator recruitment biochemical assay; at 8 µM; active compounds read high
[3] = molecular target: Peroxisome proliferator-activated receptor gamma (Homo sapiens) + Nuclear receptor coactivator 3 (Homo sapiens) (UniProt P37231+Q9Y6Q9); assay: PPARgamma-driven SRC-3 coactivator recruitment agonists, confirmation, biochemical (AID 1301; in the data active = activation above about 24%;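 note: 0% = vehicle wells and 100% = reference agonist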); details: biochemical PPARgamma-SRC-3 coactivator recruitment, agonist mode; at 8 µM; active compounds read high

Measured: activation

CN(C)c1ccc2nc3ccc(=[N+](C)C)cc-3sc2c1
active: [1] 233% | [2] 172% | [3] 167%
